Measured values published in ChEMBL document CHEMBL2177047, “Design, synthesis, and pharmacological evaluation of bis-2-(5-phenylacetamido-1,2,4-thiadiazol-2-yl)ethyl sulfide 3 (BPTES) analogs as glutaminase inhibitors” (J Med Chem, 2012).

Assay: Cytotoxicity against human P493 cells assessed as growth inhibition by trypan blue dye exclusion assay
Format: functional, cell-based
Settings: P493-6

Which IC50 does the source give for Nc1nnc(CCSCCc2nnc(NC(=O)Cc3ccccc3)s2)s1 here?
The IC50 was at most 20 µM.
